Sampled rows, rich in hits. Any-hit rate of the full collection: about 1.3%.
GSIS activator – primary screen for activators of insulin secretion dependent on glucose, INS-1E cells, GLuc reporter luminescence | INS-1E GLuc reporter insulin secretion, 2-3 h | activation, % at 16.6 µM | 370,000 compounds, 0.61% hits;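 active means lowest replicate activation of at least 40%, so every replicate reaches that level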;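 further: 0% = median of neutral control wells and 100% = median of IBMX positive control wells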
Yeast UUG start – alters start codon recognition fidelity in yeast; S. cerevisiae UUG-firefly luciferase reporter, luminescence/redox ratio; activity score, % at 18.7 µM; actives 0.13% (n = 350,000); AID 602363;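 active = replicate mean at a twofold rise or more, about +100% in these data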;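 also: firefly luciferase made from a UUG start codon reports start codon fidelity; reporter light over untreated wells divided by growth signal over untreated wells; some hits fall short of that in this replicate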
SR-BI DiI inh – blocks mouse SR-BI lipid uptake from DiI-HDL; ldlA[mSR-BI] CHO cells, DiI-HDL uptake fluorescence, 3 h; 320,000 compounds, 0.96% hits; Q61009; inhibition, % at 12.5 µM;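 active means mean replicate inhibition of at least 70% and a set share of replicates each scoring 70 or more; inconclusive means meets just one of the two criteria; inactive means fails both criteria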;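 further: 0% = median of neutral control wells and 100% = median of positive control wells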
SR-BI DiI-HDL act – activators of SR-BI mediated HDL lipid uptake; CHO ldlA[mSR-BI] cells, DiI-HDL uptake fluorescence, 3 h; 100 = double the neutral-control signal; activation, % at 12.5 µM; 320,000 compounds, 0.096% hits;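 active means mean replicate activation of at least 60% and every replicate at or above 60%; inconclusive means mean or all-replicate condition met, but not both; inactive means mean below 60% and not all replicates reaching 60%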;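 further: 0% = median plate neutral-control signal and 100% = twice that signal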
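Material: SR-BI-overexpressing, LDLR-lacking CHO cells | Dosing: Single compound concentration, delivered by pin transfer | Probe or stimulus: Labelled HDL, 10 µg/mL | Signal: Bottom-read cell fluorescence after medium removal, ex 550/em 595 nm | Schedule: 3 h, 37 °C | Evaluation: HDL uptake via cellular fluorescence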
DiI quench – counter-screen for SR-BI lipid transfer inhibitors: DiI fluorescence quenchers; AID 540326; AC50, µM (top dose mostly 35 µM), for the others: at the highest dose activity change, negative = quenching; 470 compounds, 20% hits; shares compounds with SR-BI DiI inh; cell-free DiI-HDL fluorescence quenching, 30 min;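 active means quenching, a falling signal, with AC50 below a set limit tied to the top valid dose, actives reach about 32 µM in these data; inconclusive means no clear call, values can overlap the other calls; inactive means rising signal, and the rest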
* hit, by the source's call; ? = inconclusive; / = no result.

| entry | SMILES | GSIS activator | Yeast UUG start | SR-BI DiI inh |
| --- | --- | --- | --- | --- |
| 1 | O=C1NCCOC(=O)[C@H](Cc2ccc(F)cc2)C/C=C\C[C@H]1CC(=O)N(CCO)Cc1ccccc1 | -18 | -22 | 4 |
| 2 | O=C(C[C@@H]1C/C=C\C[C@H](NC(=O)OCC2c3ccccc3-c3ccccc32)C(=O)O[C@H](c2ccccc2)CNC1=O)NCCO | / | -14 | 36 |
| 3 | C[C@@H]1COC(=O)[C@H](NC(=O)OCC2c3ccccc3-c3ccccc32)C/C=C\C[C@@H](CC(=O)N[C@@H](CO)Cc2ccccc2)C(=O)N1 | -18 | 6 | 84* |
| 4 | O=C(N[C@@H]1C/C=C\C[C@H](CC(=O)N(CCO)Cc2ccccc2)C(=O)N[C@@H](Cc2ccccc2)COC1=O)OCC1c2ccccc2-c2ccccc21 | -4 | -4 | 46 |
| 5 | O=C1NCCOC(=O)[C@H](Cc2ccc(F)cc2)C/C=C\C[C@@H]1CC(=O)N(CCO)Cc1ccccc1 | -16 | 10 | -9 |
| 6 | O=C(C[C@H]1C/C=C\C[C@H](NC(=O)OCC2c3ccccc3-c3ccccc32)C(=O)O[C@@H](c2ccccc2)CNC1=O)NCCO | -12 | 1 | 41 |
| 7 | C[C@@H]1CN([C@@H](C)CO)C(=O)Cc2cc(NC(=O)NC3CCCCC3)ccc2O[C@@H]1CN(C)S(=O)(=O)c1cn(C)cn1 | 8 | -4 | / |
| 8 | O=C(c1ccc([N+](=O)[O-])cc1)N1CCOC12CCN(c1ncc(C(F)(F)F)cc1Cl)CC2 | / | -6 | -3 |
| 9 | C[C@@H]1CN([C@@H](C)CO)S(=O)(=O)c2ccc(C#CC3CCCC3)cc2O[C@@H]1CN(C)C(=O)c1cccc(F)c1 | -11 | / | / |
| 10 | Cc1cc(C)c(C)c(S(=O)(=O)N2CCN(CC(=O)NC(=O)NCc3ccccc3)CC2)c1C | -24 | 4 | 74* |
| 11 | COc1ccc(CNC(=O)CN2CCN(S(=O)(=O)c3c(C)c(C)cc(C)c3C)CC2)cc1OC | -35 | -2 | 56 |
| 12 | Clc1ccc(-c2cc(-c3nnc4n3CCCCC4)c3ccccc3n2)cc1 | -34 | -10 | 83* |

| entry | SR-BI DiI-HDL act | DiI quench |
| --- | --- | --- |
| 1 | -4 | / |
| 2 | -36 | -10% |
| 3 | -84 | -5% |
| 4 | -46 | / |
| 5 | 9 | -3% |
| 6 | -41 | / |
| 7 | / | / |
| 8 | 3 | -19% |
| 9 | / | / |
| 10 | -74 | 1% |
| 11 | -56 | / |
| 12 | -83 | 1% |

New compounds follow
| entry | SMILES | GSIS activator | Yeast UUG start | SR-BI DiI inh |
| --- | --- | --- | --- | --- |
| 13 | CC(=O)c1cc(C#N)c(SCc2ccccc2C#N)nc1C | 8 | -24 | 75* |
| 14 | C[C@@H]1CCCCO[C@H](CN(C)S(C)(=O)=O)[C@H](C)CN([C@@H](C)CO)C(=O)c2cc(NC(=O)c3ccncc3)ccc2O1 | 0 | / | / |
| 15 | CN(C)CC(=O)N1[C@@H]2c3ccc(-c4cccnc4)c(=O)n3C[C@H]1[C@H](CO)[C@H]2C(=O)NC1CCCC1 | 6 | / | / |
| 16 | COc1cccc(-c2csc(N3CCN(C(=O)NC45CC6CC(CC(C6)C4)C5)CC3)n2)c1 | / | -10 | -17 |
| 17 | COc1cccc(-c2csc(N3CCN(C(=S)Nc4cccc(C)c4)CC3)n2)c1 | 14 | / | 90* |
| 18 | CCOc1ccc(NC(=O)c2ccc3c(c2)N(Cc2ccc(F)cc2)C(=O)CS3=O)cc1 (stereo unspecified) | -11 | 5 | 17 |
| 19 | Cc1ccc(C)c(NC(=O)c2ccc3c(c2)N(Cc2ccc(F)cc2)C(=O)CS3=O)c1 (stereo unspecified) | -14 | -3 | -7 |
| 20 | CN1C(=O)c2cc(NC(=O)Nc3ccccc3)ccc2OC[C@H]2O[C@@H](CC(=O)O)CC[C@@H]21 | 4 | / | / |
| 21 | CC(=O)c1ccc(N2CCN(C(=O)/C=C/c3ccc(S(=O)(=O)NCc4ccco4)cc3)CC2)cc1 | -19 | / | 88* |
| 22 | N#Cc1ccc(CN2CCN(C(=O)c3ccc(S(=O)(=O)NCc4ccco4)cc3)CC2)cc1 | 6 | -2 | ? |
| 23 | O=C(/C=C/c1ccco1)Nc1cccc(NC(=O)/C=C/c2ccco2)n1 | -1 | / | 8 |
| 24 | Cc1nc(NC(=O)/C=C/c2ccco2)sc1C | -7 | / | 8 |

| entry | SR-BI DiI-HDL act | DiI quench |
| --- | --- | --- |
| 13 | -75 | -1% |
| 14 | / | / |
| 15 | / | / |
| 16 | 17 | -6% |
| 17 | -90 | -10% |
| 18 | -17 | / |
| 19 | 7 | -3% |
| 20 | / | / |
| 21 | -88 | -3% |
| 22 | -72 | 0% |
| 23 | -8 | -6% |
| 24 | -8 | / |

Compounds from the list above with a Cl atom (2):
| entry | SMILES | GSIS activator | Yeast UUG start | SR-BI DiI inh |
| --- | --- | --- | --- | --- |
| 8 | O=C(c1ccc([N+](=O)[O-])cc1)N1CCOC12CCN(c1ncc(C(F)(F)F)cc1Cl)CC2 | / | -6 | -3 |
| 12 | Clc1ccc(-c2cc(-c3nnc4n3CCCCC4)c3ccccc3n2)cc1 | -34 | -10 | 83* |

| entry | SR-BI DiI-HDL act | DiI quench |
| --- | --- | --- |
| 8 | 3 | -19% |
| 12 | -83 | 1% |

The listing continues:
| entry | SMILES | GSIS activator | Yeast UUG start | SR-BI DiI inh |
| --- | --- | --- | --- | --- |
| 25 | Cc1ccccc1NC(=O)NCC1CCN(c2ccc(S(=O)(=O)N3CCOCC3)cc2)CC1 | -17 | -7 | 82* |
| 26 | Cc1cccc(NC(=O)NCC2CCN(c3ccc(S(=O)(=O)N4CCOCC4)cc3)CC2)c1 | -5 | 15 | 61 |
| 27 | CCOc1ccc(NC(=O)CN2CCN(CC(=O)Nc3ccc(F)cc3)CC2)cc1 | -4 | -14 | 53 |
| 28 | COc1ccc(NC(=O)CN2CCN(CC(=O)Nc3ccc(OC)c(OC)c3)CC2)cc1 | / | 6 | ? |

| entry | SR-BI DiI-HDL act | DiI quench |
| --- | --- | --- |
| 25 | -82 | -2% |
| 26 | -61 | / |
| 27 | -53 | / |
| 28 | -72 | -2% |
